Earlier results on one substance are cited in patent publication US5421897A, “Abatement process for contaminants” (priority 1992, dated 1995).

This series has as its system man. The note with it: inhl-wmm; cited from earlier work.

For the substance Mercury, the TCLo was 150 μg/m^3.
